Literature values, collected in patent US8614247B2, “Methods for preventing, attenuating or treating pulmonary hypertension using a serotonin transporter inhibitor, and pharmaceutical compositions for the treatment thereof” (Institut National de la Sante et de la Recherche Medicale, priority 2003, dated 2013).

Amino acid sequences for entries named in this document (tags omitted).
UniProt P31652, whole entry: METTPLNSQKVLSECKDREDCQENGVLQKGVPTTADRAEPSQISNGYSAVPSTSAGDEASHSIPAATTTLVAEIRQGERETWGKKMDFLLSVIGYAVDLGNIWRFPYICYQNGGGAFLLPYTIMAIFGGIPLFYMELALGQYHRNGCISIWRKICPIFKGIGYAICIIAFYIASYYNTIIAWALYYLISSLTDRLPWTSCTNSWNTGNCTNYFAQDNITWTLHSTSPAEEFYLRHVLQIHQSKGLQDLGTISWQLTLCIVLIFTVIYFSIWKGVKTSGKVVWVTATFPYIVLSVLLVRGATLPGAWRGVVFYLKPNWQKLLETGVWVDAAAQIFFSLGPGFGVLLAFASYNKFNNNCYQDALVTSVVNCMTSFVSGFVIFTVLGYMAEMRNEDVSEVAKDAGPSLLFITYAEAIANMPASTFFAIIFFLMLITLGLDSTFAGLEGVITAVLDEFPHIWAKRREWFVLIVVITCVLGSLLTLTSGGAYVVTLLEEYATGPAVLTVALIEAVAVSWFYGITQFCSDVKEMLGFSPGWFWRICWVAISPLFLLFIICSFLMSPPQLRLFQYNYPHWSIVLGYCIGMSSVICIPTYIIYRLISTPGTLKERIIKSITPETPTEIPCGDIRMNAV

Biological target: 5-HTT (Rattus norvegicus, UniProt P31652)
Conditions: cited from earlier work

Compound: CCNC(C)Cc1cccc(C(F)(F)F)c1 (stereo not shown) [fenfluramine]
- 5-HTT substrate: 5-HTT substrates
